Measured affinities in a library of Ab-14 heavy chain variants

Source: Engelhart et al. 2022 (doi:10.1038/s41597-022-01779-4), MIT Lincoln Laboratory and A-Alpha Bio; data file from the FLAb repository.

Binding partner: SARS-CoV-2 spike HR2 peptide, sequence PDVDLGDISGINAS.

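Phage display of a naive human antibody library on the peptide gave the parent. In library AAYL49, one, two or three CDR residues were substituted; doubles and triples were drawn at random. AlphaSeq pools MATa yeast showing the antibodies with MATalpha yeast showing the peptide. The frequency of each diploid, read from paired DNA barcodes, reflects how well the two displayed proteins bind. The ratio of observed to expected reads was calibrated, replicate by replicate, on BCL2-family standards whose Kd was known from biolayer interferometry. Each pool was mated in three replicate cultures.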

Ab-14 is the parent antibody, in scFv form: VH, then the linker GGGGSGGGGSGGGGS, then VL. The light chain is unchanged in all variants.
VH: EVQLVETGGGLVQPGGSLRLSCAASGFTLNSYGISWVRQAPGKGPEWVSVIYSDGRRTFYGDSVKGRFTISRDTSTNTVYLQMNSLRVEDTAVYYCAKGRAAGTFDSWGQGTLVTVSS
VL: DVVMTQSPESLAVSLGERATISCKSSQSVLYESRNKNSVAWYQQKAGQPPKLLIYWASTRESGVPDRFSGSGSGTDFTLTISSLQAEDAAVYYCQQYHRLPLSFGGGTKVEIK

Changes read parent residue, position, new residue, counted from the first residue of the VH shown. Affinities are written as log10 Kd with Kd in nM; a lower number is a better binder. Replicates are averaged; those with no signal do not enter the mean. A pair that was not seen in any replicate is written "not detected"; this usually means weak binding, but a binder can also be missed. Background: pairings of library AAYL49 with three empty control strains gave a value in 15% of cases (median 4.06, 5th percentile 2.83). Values in that range, when seen in few replicates, are hard to tell from nonspecific mating.

| # | mean log10 Kd (nM) | detected | changes |
|---|---|---|---|
| 1 | 4.56 | 1/3 | S35K/V64K/A102R |
| 2 | not detected | 0/3 | Y52P/T58C/T104C |
| 3 | 1.22 | 3/3 | N30Q/A101R/T104V |
| 4 | not detected | 0/3 | F27T/D106K |
| 5 | 4.23 | 3/3 | G33C/Y52R/G103P |
| 6 | 3.68 | 1/3 | G26M/G33S/A102W |
| 7 | 4.24 | 1/3 | G33Q/S35W/G99C |
| 8 | not detected | 0/3 | N30R/V50E/I51F |
| 9 | 5.26 | 1/3 | S31Q/G55R |
| 10 | not detected | 0/3 | Y52T/A101F |
| 11 | not detected | 0/3 | I34D/T104L |
| 12 | 4.53 | 1/3 | F27V/I51Q |
| 13 | 3.51 | 1/3 | L29I/S31C/I34P |
| 14 | 4.43 | 1/3 | G26I/G55C/K65A |
| 15 | 4.27 | 2/3 | N30S/F59W/T104K |
| 16 | 3.66 | 1/3 | L29D/S53I/D106E |
| 17 | 1.47 | 3/3 | N30P/F59A/S107A |
| 18 | not detected | 0/3 | N30H/G61K/F105W |
| 19 | not detected | 0/3 | G55F/S63T/D106S |
| 20 | 4.25 | 1/3 | V50E/Y52V/A102K |
| 21 | 4.04 | 2/3 | F27N/G33N/T58A |
| 22 | not detected | 0/3 | V50Q/R56Y/G99Y |
| 23 | 4.63 | 2/3 | K65T/A101V/D106V |
| 24 | 0.33 | 3/3 | L29V/F59A/D62N |
| 25 | 4.97 | 1/3 | S31N/I51K/T104P |
| 26 | 2.73 | 3/3 | R100E/D106L |
| 27 | not detected | 0/3 | S35V/F59G/A101R |
| 28 | not detected | 0/3 | I34A/A101S/T104N |
| 29 | not detected | 0/3 | Y32T/G55T/F105K |
| 30 | 3.55 | 3/3 | V64T/G99A/F105Q |
| 31 | not detected | 0/3 | G26V/R57T/V64E |
| 32 | not detected | 0/3 | V50W/G103I/S107Y |
| 33 | not detected | 0/3 | R56H/K65E/D106T |
| 34 | not detected | 0/3 | Y32H/K65M/D106Y |
| 35 | not detected | 0/3 | F27H/R56N/F105S |
| 36 | 5.09 | 1/3 | I51K/T58F/K65P |
| 37 | 3.50 | 1/3 | I51K/D54E/G103D |
| 38 | not detected | 0/3 | L29F/G33W/V64K |
| 39 | 4.30 | 2/3 | F27T/S35Y/V50F |
| 40 | 4.12 | 2/3 | I34L/D54W/Y60K |
| 41 | 5.21 | 2/3 | F59M/V64N/S107I |
| 42 | not detected | 0/3 | T28H/Y60V/T104F |
| 43 | 3.89 | 1/3 | V50Q/T58K/G99V |
| 44 | not detected | 0/3 | Y52I/R100Q |
| 45 | 4.02 | 1/3 | G26M/N30G |
| 46 | 4.86 | 1/3 | G55L/S107P |
| 47 | 4.22 | 1/3 | G26K/I51S/T104E |
| 48 | not detected | 0/3 | Y32G/I34D/I51K |
| 49 | 4.82 | 2/3 | G26E/Y32T/G55W |
| 50 | 3.51 | 2/3 | I34R/D54I/G103R |
| 51 | 3.84 | 3/3 | I51G/S63I/S107N |
| 52 | not detected | 0/3 | F27D/Y60N/G99F |
| 53 | 3.45 | 2/3 | Y60D/G99R/R100L |
| 54 | 3.71 | 3/3 | I34R/Y52F/A102E |
| 55 | 2.29 | 3/3 | G61M/S63T/A101R |
| 56 | 3.88 | 1/3 | S31C/I51D/F59R |
| 57 | not detected | 0/3 | G55H/V64T/A101K |
| 58 | 4.31 | 1/3 | D54M/A101G/S107P |
| 59 | 3.33 | 2/3 | G33P/I34T/F105E |
| 60 | not detected | 0/3 | I34A/A102P/D106G |
| 61 | 3.53 | 1/3 | G33N/V50M/D54N |
| 62 | 3.95 | 1/3 | S53H/A102E |
| 63 | 4.80 | 1/3 | S35M/Y60L/S63G |
| 64 | not detected | 0/3 | F27T/I34T/T104R |
| 65 | 2.83 | 1/3 | R56Y/G99S/R100T |
| 66 | not detected | 0/3 | Y52Q/A102G |
| 67 | not detected | 0/3 | F27L/A102P/T104C |
| 68 | not detected | 0/3 | S31Q/G55K/T104N |
| 69 | 4.10 | 1/3 | Y32V/I51Q/K65F |
| 70 | not detected | 0/3 | F59T/D106N |
| 71 | not detected | 0/3 | G26P/L29W/S107K |
| 72 | 2.97 | 3/3 | G26N/R56L/V64T |
| 73 | not detected | 0/3 | Y32Q/G33V/R56W |
| 74 | not detected | 0/3 | Y32K/G33K/A101Y |
| 75 | 2.55 | 3/3 | K65G/G103P/S107P |
| 76 | 4.60 | 1/3 | Y32E/R100L/G103K |
| 77 | 2.55 | 1/3 | T28N/S31W/R57E |
| 78 | 5.83 | 2/3 | I34Q/S35W/V50I |
| 79 | not detected | 0/3 | F27N/S107A |
| 80 | not detected | 0/3 | G33R/V64R/S107K |